Data reported in patent US20190211020A1 (Agency for Science, Technology and Research, priority 2012, published 2019).

How the values were obtained:
[1] = Pharmacokinetics assays (plasma and brain); type: in vivo
[2] = test system: MV-4-11, P116.c139 and D1.1 cell lines; test: Cell cytotoxicity assay, the three test cell lines taken together; type: cell-based
Method: Cancer cell lines, MV-4-11 (leukemia), P116.c139 (acute T cell leukemia) and D1.1 (acute T cell leukemia), were purchased from ATCC and cultured according to supplier's recommendations. K562 cells (myelogenous leukemia) over-expressing eIF4E, were also used for the cytotoxicity assay. For cells treated for 48 hours, 5000 cells were seeded in 70 μl of growth medium in black, flat-bottom 96-well plate. For cells treated for six days, 1000 cells were seeded in 70 μl of growth medium in black, flat-bottom 96-well plate. The compounds, Cercosporamide, Example 176 (ETC-7114), Example 175 (ETC-7117), Example 133 (ETC-7165) and Example 62 (ETC-7168), were treated with doses ranging from 0.003 μM to 50 μM. 50 μl of the diluted compounds was added to the cells and incubated at 37° C. in 5% CO2. After 48 hours or six days treatment, cell viability was determined by CellTiter-Glo Luminescent Cell Viability Assay (Promega, Madison, Wis.). 120 μl of the reagent was added to the cells and luminescence was measured using Tecan Safire Reader. Data was analysed with Graphpad Prism software and the figures represented indicate the half maximal inhibitory concentration (IC50). Error bars denote standard deviation (SD).

SMILES	Tmax ([1]; brain, read-out: Brain Tmax)	Plasma/Brain Ratio ([1]; in vivo)	Tmax ([1]; plasma, read-out: Plasma Tmax)	relative cytotoxicity amongst the four compounds [2]
N#Cc1ccc(-c2cnc3ccc(-c4ccc(C(=O)N5CCOCC5)cc4)nn23)cc1 [Entry 5]	30 min	0.12	30 min	–
N#Cc1ccc(-c2cnc3ccc(-c4ccc(C(=O)N5CCOCC5)cc4)nn23)cc1 [Example 62, 4-(6-(4-(morpholine-4-carbonyl)phenyl)imidazo[1,2-b]pyridazin-3-yl)benzonitrile]	–	–	–	most cytotoxic

Where two headings read alike, the source gives them in different places.
